The values that follow are results of earlier work, collected in US10357480B2, “Biotin for treating peripheral demyelinating neuropathy” (MedDay Pharmaceuticals, priority 2015, dated 2019).

This series deals with patients affected by ALS. The settings on record: cited from earlier work.

Take `Nc1nc2ccc(OC(F)(F)F)cc2s1` [riluzole]: the “prolonged survival, average” value (ALS patients (Mitsumoto et al., 2014)) is recorded as 2-3 months. For the setting “from Wikipedia”, the “liver damage, people taking the drug” value is “about 10%”.
